Experimental data reported in patent US6545000B1, “[1,2,4]triazolo[1,5-c]pyrimidine derivatives” (Kyowa Hakko Kogyo Co., Ltd., priority 1998, dated 2003).

System: CGS 21680-induced catalepsy
Assay: Activity on CGS 21680-induced catalepsy
Type: in vivo
Conditions: Mus musculus, po, 1 h, read-out: Remission ratio (%)

CC(C)(O)CCN1CCN(c2cc3nc(-c4ccco4)nn3c(N)n2)CC1 [Compound 7, 5-Amino-2-(2-furyl)-7-(4-(3-hydroxy-3-methylbutyl)piperazinyl)[1,2,4]triazolo[1,5-c]pyrimidine]
inhibition in vivo at 10 mg/kg: 84%
